This is a selection; strong and weak results do not stand in their true shares. Activity calls are given as the source filed them. No stated cut-off is given here; in the data, active means inhibition above about 50%; inconclusive means no clear call, values can overlap the other calls; inactive means below that.

In PubChem BioAssay AID1554 (Broad Institute, 2009) one finds inhibition data, which are given here for 59 compounds.

This test in a line: PubChem AID 1554. The note with it: BJeLR (HRASV12) viability, CellTiter-Glo ATP luminescence, 48 h; active compounds read high; concentration not given here.
As a reminder, the inhibition is the drop in the measured response relative to a control, in per cent. For the compound `CN1CCC(Nc2ccc(F)c(Cl)c2)CC1`, the inhibition was inactive: -3.25%.

For the compound `CCOc1ncccc1C(=O)NCC1(N2CCOCC2)CCCCC1`, the inhibition was inactive: -0.92%.

Regarding `O=C(O)C1(Nc2ccccc2)CCN(Cc2ccccc2)CC1`, the inhibition is inactive: -2.29%.

Regarding `CC(C)(C)OC(=O)N1CCC(Nc2ccccc2)CC1`, the inhibition was inactive: 7.93%.

`CCCOc1ccc(C(=O)NCC2(N(C)C)CCCCC2)cc1`: the inhibition was inactive: 0.507%.

With `COc1cccc(C(=O)N(c2cc(C)cc(C)c2)C2CCN(C(=O)OC(C)(C)C)CC2)c1`, the inhibition was inactive: 1.33%.

Turning to `COc1cc(OC)cc(C(=O)NCC2(N3CCOCC3)CCCCC2)c1`, the inhibition is inactive: -3.65%.

Take `CCC(CO)(C(=O)OC1CN2CCC1CC2)c1ccccc1` (centres undefined): the inhibition is inactive: 0.581%.

Take `CN1CCC(Nc2ccc(Cl)cc2)CC1`: the inhibition is inactive: -2.69%.

For `CCCOc1ccc(C)cc1CN(CCCl)CCCl`, the inhibition was inactive: 4.73%.

Regarding `COc1cc(OC)cc(C(=O)NCC2(N3CCCCC3)CCCCC2)c1`, the inhibition is inactive: -3.74%.

Regarding `Fc1ccccc1NC1CCN(Cc2ccccc2)CC1`, the inhibition is inactive: -4.66%.

For the compound `Cc1ccc(C(=O)NCC2(N3CCCCC3)CCCCC2)o1`, the inhibition is inactive: -8.86%.

As for `CCN1CCC(Nc2cccc(F)c2)CC1`, the inhibition was inactive: 0.788%.

`CN(C)c1ccc(C(=O)NCC2(N3CCCCC3)CCCCC2)cc1`: the inhibition is inactive: 10.1%.

Regarding `N#Cc1ccc(C(=O)NCC2(N3CCCCC3)CCCCC2)cc1`, the inhibition was inactive: -2.44%.

For `CC(C)(C)OC(=O)N1CCC(N(C(=O)c2ccccc2)c2ccc(Cl)cc2)CC1`, the inhibition was inactive: -13%.

For the compound `CN(C)C1(CNC(=O)c2cccc(C#N)c2)CCCCC1`, the inhibition is inactive: 5.66%.

Turning to `CCCN1CCC(Nc2cc(OC)cc(OC)c2)CC1`, the inhibition is inactive: 0.611%.

Regarding `c1ccc(CN2CCC(Nc3ccccc3)CC2)cc1`, the inhibition is inactive: 4.57%.

As to `COc1ccc(C(=O)NCC2(N3CCOCC3)CCCCC2)cc1OC`, the inhibition was inactive: 1.32%.

Turning to `CCOC(=O)N1CCC(Nc2ccc(C)cc2)CC1`, the inhibition was inactive: 1.61%.

For `N/C(=N\O)c1c(N)no[n+]1[O-]`, the inhibition was inactive: 12.3%.

Turning to `CCc1cc(C(=O)NCC2(N3CCCCC3)CCCCC2)sc1C`, the inhibition was inactive: 5.7%.

Consider `O=C(OC1CN2CCC1CC2)C1c2ccccc2C=Cc2ccccc21` (centres undefined), for which the inhibition is inactive: 1.85%.

On to `CC(C)c1ccc(NC2CCN(C(=O)OC(C)(C)C)CC2)cc1`, for which the inhibition is inactive: -0.369%.

Consider `CN(C)c1cccc(C(=O)NCC2(N3CCCCC3)CCCCC2)c1`, for which the inhibition was inactive: -3.29%.

On to `COc1ccc(CN(CCCl)CCCl)cc1Cl`, for which the inhibition was inactive: -10.3%.

Take `COc1cc(OC)c(C(=O)NCC2(N(C)C)CCCCC2)cc1OC`: the inhibition is inactive: -1.92%.

On to `CN1CCC(Nc2cccc(F)c2)CC1`, for which the inhibition is inactive: 15.5%.

Consider `CCCOc1ccc(C(=O)NCC2(N(C)C)CCCCC2)cc1OC`, for which the inhibition is inactive: -7.47%.

With `O=C(NCC1(N2CCCCC2)CCCCC1)c1ccc(OC(F)F)cc1`, the inhibition was inactive: -2.13%.

Regarding `N#CC1(Nc2ccccc2)CCN(CCc2ccccc2)CC1`, the inhibition is inactive: 1.71%.

Consider `CCN1CCC(Nc2ccc(Cl)cc2)CC1`, for which the inhibition was inactive: -3.13%.

Take `O=C(NCC1(N2CCCCC2)CCCCC1)c1cccc([N+](=O)[O-])c1`: the inhibition is inactive: 6.39%.

`O=C(NCC1(N2CCCCC2)CCCCC1)c1cccc(C(F)(F)F)c1`: the inhibition was inactive: 3.46%.

As to `O=C(NCC1(N2CCOCC2)CCCCC1)c1cc(=O)[nH]c2ccccc12`, the inhibition was inactive: 4.51%.

`COc1cc(C(=O)NCC2(N3CCCCC3)CCCCC2)ccc1OC(F)F`: the inhibition was inactive: 3.94%.

On to `COc1ccc(NC2CCN(C(=O)OC(C)(C)C)CC2)cc1`, for which the inhibition was inactive: -8.23%.

For `CN1CCN(CCOC(=O)C(O)(c2ccccc2)c2ccccc2)CC1`, the inhibition is inactive: 4.21%.

Take `CCOc1ccc(C)cc1CN(CCCl)CCCl`: the inhibition is inactive: 6%.

Consider `CCOC(=O)N1CCC(Nc2ccc(F)cc2)CC1`, for which the inhibition was inactive: -2.78%.

In the case of `COc1ccc(NC2CCN(CCc3ccccc3)CC2)c(OC)c1`, the inhibition is inactive: -7.23%.

Consider `O=C(NCC1(N2CCCCC2)CCCCC1)c1ccc(F)cc1`, for which the inhibition is inactive: -7.54%.

Take `Cc1ccc(OCC(C)C)c(CN(CCCl)CCCl)c1`: the inhibition is inactive: 7.97%.

Take `CCOC(=O)N1CCC(Nc2cccc(C)c2)CC1`: the inhibition is inactive: -3.91%.

As for `COc1cc(C(=O)NCC2(N(C)C)CCCCC2)ccc1OC(F)F`, the inhibition is inactive: -4.8%.

As to `CC(C)(C)OC(=O)N1CCC(N(C(=O)c2ccccc2)c2ccc(F)cc2)CC1`, the inhibition is inactive: 8.36%.

With `COc1ccc(C(=O)NCC2(N3CCCCC3)CCCCC2)c(OC)c1OC`, the inhibition was inactive: -11%.

Turning to `COc1ccc(C(=O)NCC2(N3CCCCC3)CCCCC2)cc1`, the inhibition is inactive: -1.46%.

For `O=C(NCC1(N2CCCCC2)CCCCC1)c1cccs1`, the inhibition was inactive: 6.22%.

Turning to `O=C(NCC1(N2CCCCC2)CCCCC1)c1ccc(=O)[nH]c1`, the inhibition was inactive: -11.8%.

Take `CSc1ccccc1C(=O)NCC1(N2CCCCC2)CCCCC1`: the inhibition is inactive: -1.89%.

For the compound `Cc1cc(C)cc(N(C(=O)c2ccccc2)C2CCN(C(=O)OC(C)(C)C)CC2)c1`, the inhibition was inactive: 2.56%.

Consider `O=C(NCC1(N2CCCCC2)CCCCC1)c1ccc(Cl)nc1`, for which the inhibition was inactive: -5.9%.

Take `O=C(NCC1(N2CCOCC2)CCCCC1)c1cc2ccccc2o1`: the inhibition is inactive: -0.409%.

Consider `N#CC1(Nc2ccccc2)CCN(Cc2ccccc2)CC1`, for which the inhibition was inactive: 1.04%.

On to `O=C(OC1CN2CCC1CC2)C1c2ccccc2Oc2ccccc21` (centres undefined), for which the inhibition is inactive: 15.8%.

For `CCOC(=O)N1CCC(Nc2ccc(OC)cc2)CC1`, the inhibition was inactive: -9.44%.
